This test in a line: Selectivity index, ratio of CC50 for HFF to EC50 for HSV2 MS infected in HFF.

Where only a bound is given, the exact number is not on record here.

As for `Nc1nc2c(ncn2COCCO)c(=O)[nH]1` [ACYCLOVIR], the Ratio CC50/EC50 was greater than 150.

Turning to `Nc1ccn(C[C@@H](CO)OCP(=O)(O)O)c(=O)n1.O.O` [CIDOFOVIR], the Ratio CC50/EC50 is greater than 11.

Values taken from ChEMBL document CHEMBL1649277, “Inhibition of herpesvirus replication by 5-substituted 4'-thiopyrimidine nucleosides” (Antimicrob Agents Chemother, 2009).
